The results in this text go back to patent US8334413B2, “Topical compositions and methods for epithelial-related conditions” (Signum Biosciences, Inc., priority 2004, dated 2012).

Structures are written as SMILES.

The test system of one series is mouse ear. The series can be described thus: AFC in acetone alone, mouse ear edema (irritancy). Format: in vivo, mice. The following applies: topical. As for the experimental part:
A range of from 5 mg to 32 mg AFC, a polyisoprenyl-protein inhibitor compound, was mixed with 20 μl acetone to produce an inventive AFC composition. Each concentration was applied with the aid of a micropipetter onto the right ear of each of six mice so that 10 μl of each of the concentrations of the AFC inventive compositions were applied to an inner ear surface and 10 μl was applied to an outer ear surface of the right ear. The AFC inventive compositions were spread evenly with a pipette tip. Each contralateral ear was treated with only acetone in the same manner. The mice then were returned to their cages. After 5.5 hours, mice were sacrificed and 6 mm punches were taken from each ear and weighed. Edema response was expressed as the percent increase in the treated ear's weight over the untreated (acetone, vehicle only) ear.

In the next series the test system is AA induced MPO. The series can be described thus: Arachidonic acid-induced neutrophil infiltration, MPO assay. The settings on record: AA 4 mg/40 μl acetone, MPO at 5 hr. It counts as in vivo, mice. As for the experimental part: The effect of the inventive compositions on arachidonic acid (AA)-induced inflammation was assayed using the same protocols as above, but with the following modifications. AA was applied to both ears at 4 mg/40 μl acetone. The ears were harvested at 1 hr to measure edema, the maximum response time, and at 5 hr for inflammatory neutrophil infiltration as measured by an MPO assay.

`CC(=O)N[C@@H](CSCC=C(C)CCC=C(C)CCC=C(C)C)C(=O)O` (stereo in doubt) [AFC, N-acetyl-S-farnesylcysteine]: the “dose not inducing edema relative to doses having efficacy against chemically-induced edema” value in the series on mouse ear came out at 60 fold. In the series on AA induced MPO, the “ED50 against AA-induced MPO relative to TPA-induced” value turned out to be 10 fold and the “activity against AA-induced granulocyte infiltration relative to TPA-induced” value is 50%.
